Experimental data reported in patent US20180311124A1, “CLIMBAZOLE MICROCAPSULE AND HAIR CARE COMPOSITION COMPRISING SURFACTANT AND CLIMBAZOLE” (priority 2015, published 2018).

Text: A number of perfume components, perfume mixtures and oils considered to be safe to use on scalp were screened to evaluate their ability to solubilise climbazole. Because emulsion polymerisation also encapsulates the solvent an efficient solvent is needed to get a high loading of climbazole into a microcapsule.

## Eucalyptus oil
  ability to solubilise climbazole: failed to solubilise it at any ratio tested
